Laboratory results taken from ChEMBL document CHEMBL2203054, “Synthesis and biological evaluation of a selective N- and p/q-type calcium channel agonist” (ACS Med Chem Lett, 2012).

Chains of the proteins cited; added tags and fusions are not shown.
UniProt Q00975, whole entry: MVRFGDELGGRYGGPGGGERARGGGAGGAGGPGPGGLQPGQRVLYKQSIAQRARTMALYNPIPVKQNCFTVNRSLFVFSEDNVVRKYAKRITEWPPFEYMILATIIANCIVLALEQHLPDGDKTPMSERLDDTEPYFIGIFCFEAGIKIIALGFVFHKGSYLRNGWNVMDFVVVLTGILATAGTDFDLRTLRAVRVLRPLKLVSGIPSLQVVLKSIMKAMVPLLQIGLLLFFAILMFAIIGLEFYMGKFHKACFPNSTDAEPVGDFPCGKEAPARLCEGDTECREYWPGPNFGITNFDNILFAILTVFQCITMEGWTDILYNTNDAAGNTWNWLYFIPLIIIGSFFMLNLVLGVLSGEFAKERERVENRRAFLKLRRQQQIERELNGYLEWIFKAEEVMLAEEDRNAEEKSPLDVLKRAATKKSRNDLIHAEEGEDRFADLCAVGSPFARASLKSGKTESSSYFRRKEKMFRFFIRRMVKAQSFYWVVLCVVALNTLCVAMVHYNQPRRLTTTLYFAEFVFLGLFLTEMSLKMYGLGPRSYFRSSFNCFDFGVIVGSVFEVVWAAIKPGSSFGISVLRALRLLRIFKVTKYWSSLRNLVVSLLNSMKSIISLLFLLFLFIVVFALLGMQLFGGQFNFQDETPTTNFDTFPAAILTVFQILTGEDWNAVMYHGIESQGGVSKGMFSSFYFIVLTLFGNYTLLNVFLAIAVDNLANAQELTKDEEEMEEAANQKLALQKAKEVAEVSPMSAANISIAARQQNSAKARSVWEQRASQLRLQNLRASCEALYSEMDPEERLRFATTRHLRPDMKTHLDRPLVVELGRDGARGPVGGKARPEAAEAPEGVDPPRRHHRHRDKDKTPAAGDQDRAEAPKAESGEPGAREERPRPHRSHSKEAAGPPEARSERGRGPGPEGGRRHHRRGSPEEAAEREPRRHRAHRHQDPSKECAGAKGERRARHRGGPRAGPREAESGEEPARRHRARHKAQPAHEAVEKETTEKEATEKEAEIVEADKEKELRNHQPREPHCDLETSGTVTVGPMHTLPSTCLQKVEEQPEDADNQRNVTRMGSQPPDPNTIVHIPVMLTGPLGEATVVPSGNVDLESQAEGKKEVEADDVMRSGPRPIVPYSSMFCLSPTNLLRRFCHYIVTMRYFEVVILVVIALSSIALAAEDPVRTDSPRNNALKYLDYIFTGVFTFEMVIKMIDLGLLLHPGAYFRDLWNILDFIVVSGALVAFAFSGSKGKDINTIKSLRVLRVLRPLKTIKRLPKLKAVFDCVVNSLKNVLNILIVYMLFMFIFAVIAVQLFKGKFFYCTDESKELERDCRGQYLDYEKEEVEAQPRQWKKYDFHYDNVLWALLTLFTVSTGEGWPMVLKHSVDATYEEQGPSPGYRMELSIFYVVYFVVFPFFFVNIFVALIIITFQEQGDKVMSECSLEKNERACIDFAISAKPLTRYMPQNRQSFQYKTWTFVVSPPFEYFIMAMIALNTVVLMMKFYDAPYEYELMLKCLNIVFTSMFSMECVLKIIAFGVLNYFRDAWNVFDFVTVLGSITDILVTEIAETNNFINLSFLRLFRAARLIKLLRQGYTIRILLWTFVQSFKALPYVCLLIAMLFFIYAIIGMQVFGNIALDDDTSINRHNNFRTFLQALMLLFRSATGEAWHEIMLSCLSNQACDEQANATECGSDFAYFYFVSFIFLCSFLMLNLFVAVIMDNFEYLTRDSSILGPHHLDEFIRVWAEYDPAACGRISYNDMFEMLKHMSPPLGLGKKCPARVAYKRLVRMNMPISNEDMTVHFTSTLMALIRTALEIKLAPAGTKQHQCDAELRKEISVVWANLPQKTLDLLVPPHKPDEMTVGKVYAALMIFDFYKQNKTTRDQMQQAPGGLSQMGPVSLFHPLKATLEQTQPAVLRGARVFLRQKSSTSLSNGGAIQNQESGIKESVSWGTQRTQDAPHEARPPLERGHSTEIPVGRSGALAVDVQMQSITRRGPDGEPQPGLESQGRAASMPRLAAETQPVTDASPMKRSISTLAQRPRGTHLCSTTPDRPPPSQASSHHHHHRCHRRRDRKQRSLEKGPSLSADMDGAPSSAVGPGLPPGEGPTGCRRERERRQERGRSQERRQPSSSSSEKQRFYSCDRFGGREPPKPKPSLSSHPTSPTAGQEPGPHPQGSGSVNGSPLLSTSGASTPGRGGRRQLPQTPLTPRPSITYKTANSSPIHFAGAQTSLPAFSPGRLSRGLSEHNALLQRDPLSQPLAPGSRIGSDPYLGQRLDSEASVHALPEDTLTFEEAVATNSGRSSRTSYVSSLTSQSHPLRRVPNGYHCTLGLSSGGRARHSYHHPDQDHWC

Target: Voltage-dependent N-type calcium channel subunit alpha-1B (Homo sapiens, UniProt Q00975)
Assay: Agonist activity at N-type Cav2.2 channel expressed in tsA201 cell assessed as calcium current by whole-cell patch clamp method
Assay type: functional, cell-based

## CC[C@H](CO)Nc1nc(NCc2ccccc2)c2ncn(C(C)C)c2n1 [SELICICLIB]
  EC50: 27.6 µM
